# Reference: patent US20130096170A1 (priority 2011, published 2013)
# Tested on: infants 1 to 24 months postoperative from cardiac surgery
# Conditions: for UMSS, Mean / UMSS, Median: ITT; for UMSS Awake and alert, number of patients / UMSS Deeply sedated/Deep sleep, number of patients / UMSS Minimally sedated/Sleepy, number of patients / UMSS Moderately sedated/Somnolent, number of patients / UMSS Unarousable, number of patients: N = 12, ITT
# [1] = 4 to 6 hours after start of infusion, High Dose (1.0 μg/kg bolus, 0.75 μg/kg/hour infusion)
# [2] = 4 to 6 hours after start of infusion, Moderate Dose (0.7 μg/kg bolus, 0.5 μg/kg/hour infusion)
# [3] = 12 Hours after end of infusion, Low Dose (0.35 μg/kg bolus, 0.25 μg/kg/hour infusion)
# [4] = 15 to 18 hours after end of infusion, Moderate Dose (0.7 μg/kg bolus, 0.5 μg/kg/hour infusion)
# [5] = 30-15 min prior to end of infusion, Moderate Dose (0.7 μg/kg bolus, 0.5 μg/kg/hour infusion)
# [6] = 15 min after end of infusion, High Dose (1.0 μg/kg bolus, 0.75 μg/kg/hour infusion)
# [7] = 15 min after end of infusion, Low Dose (0.35 μg/kg bolus, 0.25 μg/kg/hour infusion)
# [8] = 15 min after end of infusion, Moderate Dose (0.7 μg/kg bolus, 0.5 μg/kg/hour infusion)
# [9] = 30 min after start of infusion, High Dose (1.0 μg/kg bolus, 0.75 μg/kg/hour infusion)
# [10] = 30 min after start of infusion, Low Dose (0.35 μg/kg bolus, 0.25 μg/kg/hour infusion)
# [11] = 30 min after start of infusion, Moderate Dose (0.7 μg/kg bolus, 0.5 μg/kg/hour infusion)
# [12] = 30 minutes after end of infusion, High Dose (1.0 μg/kg bolus, 0.75 μg/kg/hour infusion)
# [13] = 60 min after end of infusion, High Dose (1.0 μg/kg bolus, 0.75 μg/kg/hour infusion)
# [14] = 60 min after end of infusion, Low Dose (0.35 μg/kg bolus, 0.25 μg/kg/hour infusion)
# [15] = 60 min after start of infusion, High Dose (1.0 μg/kg bolus, 0.75 μg/kg/hour infusion)
# [16] = 60 min after start of infusion, Moderate Dose (0.7 μg/kg bolus, 0.5 μg/kg/hour infusion)
# [17] = 2 hours after end of infusion, High Dose (1.0 μg/kg bolus, 0.75 μg/kg/hour infusion)
# [18] = 2 hours after end of infusion, Low Dose (0.35 μg/kg bolus, 0.25 μg/kg/hour infusion)
# [19] = 2 hours after end of infusion, Moderate Dose (0.7 μg/kg bolus, 0.5 μg/kg/hour infusion)
# [20] = 2 hours after start of infusion, Moderate Dose (0.7 μg/kg bolus, 0.5 μg/kg/hour infusion)
# [21] = 4 hours after end of infusion, High Dose (1.0 μg/kg bolus, 0.75 μg/kg/hour infusion)
# [22] = 4 hours after end of infusion, Low Dose (0.35 μg/kg bolus, 0.25 μg/kg/hour infusion)
# [23] = 4 hours after end of infusion, Moderate Dose (0.7 μg/kg bolus, 0.5 μg/kg/hour infusion)
# [24] = 8 hours after end of infusion, High Dose (1.0 μg/kg bolus, 0.75 μg/kg/hour infusion)
# [25] = 8 hours after end of infusion, Moderate Dose (0.7 μg/kg bolus, 0.5 μg/kg/hour infusion)
# [26] = 12 hours after start of infusion, Low Dose (0.35 μg/kg bolus, 0.25 μg/kg/hour infusion)
# [27] = End of bolus, Low Dose (0.35 μg/kg bolus, 0.25 μg/kg/hour infusion)
# [28] = Post Infusion Hour 1, High dose (1.0 μg/kg bolus, 0.75 μg/kg/hour infusion)
# [29] = Post Infusion Hour 1, Low dose (0.35 μg/kg bolus, 0.25 μg/kg/hour infusion)
# [30] = Post Infusion Hour 1, Moderate dose (0.7 μg/kg bolus, 0.5 μg/kg/hour infusion)
# [31] = Post Infusion Hour 3, High dose (1.0 μg/kg bolus, 0.75 μg/kg/hour infusion)
# [32] = Post Infusion Hour 3, Low dose (0.35 μg/kg bolus, 0.25 μg/kg/hour infusion)
# [33] = Post Infusion Hour 3, Moderate dose (0.7 μg/kg bolus, 0.5 μg/kg/hour infusion)
# [34] = Post Infusion Hour 6, High dose (1.0 μg/kg bolus, 0.75 μg/kg/hour infusion)
# [35] = Post Infusion Hour 6, Low dose (0.35 μg/kg bolus, 0.25 μg/kg/hour infusion)
# [36] = Post Infusion Hour 6, Moderate dose (0.7 μg/kg bolus, 0.5 μg/kg/hour infusion)
# [37] = Post Infusion Hour 10, High dose (1.0 μg/kg bolus, 0.75 μg/kg/hour infusion)
structure (smiles),measurement,setting,value
Cc1cccc([C@H](C)c2cnc[nH]2)c1C [dexmedetomidine],"UMSS, Mean",[1],2.4
same,"UMSS, Median",[1],2.0
same,"UMSS, Mean",[2],1.6
same,"UMSS, Median",[2],2.0
same,"UMSS, Mean",[3],1.0
same,"UMSS, Median",[3],1.0
same,"UMSS, Mean","12 Hours after end of infusion, Moderate Dose (0.7 μg/kg bolus, 0.5 μg/kg/hour infusion)",1.0
same,"UMSS, Mean",[4],0
same,"UMSS, Median",[4],0.0
same,"UMSS, Median","30-15 min prior to end of infusion, High Dose (1.0 μg/kg bolus, 0.75 μg/kg/hour infusion)",2.0
same,"UMSS, Mean",[5],1.6
same,"UMSS, Median",[5],2.0
same,"UMSS, Mean",[6],2.6
same,"UMSS, Median",[6],3.0
same,"UMSS, Mean",[7],3.0
same,"UMSS, Median",[7],3.0
same,"UMSS, Mean",[8],1.7
same,"UMSS, Median",[8],1.0
same,"UMSS, Mean",[9],3.8
same,"UMSS, Median",[9],4.0
same,"UMSS, Mean",[10],3.5
same,"UMSS, Median",[10],4.0
same,"UMSS, Mean",[11],3.5
same,"UMSS, Median",[11],4.0
same,"UMSS, Mean",[12],2.0
same,"UMSS, Median",[12],2.0
same,"UMSS, Median","30 minutes after end of infusion, Low Dose (0.35 μg/kg bolus, 0.25 μg/kg/hour infusion)",2.0
same,"UMSS, Mean",[13],1.6
same,"UMSS, Median",[13],2.0
same,"UMSS, Mean",[14],0.8
same,"UMSS, Median",[14],1.0
same,"UMSS, Mean","60 min after end of infusion, Moderate Dose (0.7 μg/kg bolus, 0.5 μg/kg/hour infusion)",1.7
same,"UMSS, Mean",[15],3.4
same,"UMSS, Median",[15],4.0
same,"UMSS, Mean",[16],3.8
same,"UMSS, Median",[16],4.0
same,"UMSS, Mean",[17],1.3
same,"UMSS, Median",[17],1.0
same,"UMSS, Mean",[18],1.8
same,"UMSS, Median",[18],2.0
same,"UMSS, Mean",[19],1.1
same,"UMSS, Median",[19],1.0
same,"UMSS, Median","2 hours after start of infusion, High Dose (1.0 μg/kg bolus, 0.75 μg/kg/hour infusion)",3.0
same,"UMSS, Mean",[20],3.4
same,"UMSS, Median",[20],4.0
same,"UMSS, Mean",[21],1.3
same,"UMSS, Median",[21],1.0
same,"UMSS, Mean",[22],1.1
same,"UMSS, Median",[22],1.0
same,"UMSS, Mean",[23],0.8
same,"UMSS, Median",[23],0.0
same,"UMSS, Median","6 hours after start of infusion, Low Dose (0.35 μg/kg bolus, 0.25 μg/kg/hour infusion)",2.0
same,"UMSS, Mean",[24],0.4
same,"UMSS, Median",[24],0.0
same,"UMSS, Mean","8 hours after end of infusion, Low Dose (0.35 μg/kg bolus, 0.25 μg/kg/hour infusion)",1.2
same,"UMSS, Mean",[25],1.0
same,"UMSS, Median",[25],1.0
same,"UMSS, Mean",[26],2.0
same,"UMSS, Median",[26],2.0
same,"UMSS, Mean",[27],3.7
same,"UMSS, Median",[27],4.0
same,"UMSS, Median","End of infusion, Low Dose (0.35 μg/kg bolus, 0.25 μg/kg/hour infusion)",2.0
same,"UMSS Awake and alert, number of patients",[28],0 patients
same,"UMSS Deeply sedated/Deep sleep, number of patients",[28],1 patients
same,"UMSS Minimally sedated/Sleepy, number of patients",[28],0 patients
same,"UMSS Moderately sedated/Somnolent, number of patients",[28],2 patients
same,"UMSS Unarousable, number of patients",[28],8 patients
same,"UMSS Awake and alert, number of patients",[29],0 patients
same,"UMSS Deeply sedated/Deep sleep, number of patients",[29],1 patients
same,"UMSS Minimally sedated/Sleepy, number of patients",[29],1 patients
same,"UMSS Moderately sedated/Somnolent, number of patients",[29],1 patients
same,"UMSS Unarousable, number of patients",[29],9 patients
same,"UMSS Awake and alert, number of patients",[30],0 patients
same,"UMSS Deeply sedated/Deep sleep, number of patients",[30],3 patients
same,"UMSS Minimally sedated/Sleepy, number of patients",[30],0 patients
same,"UMSS Moderately sedated/Somnolent, number of patients",[30],0 patients
same,"UMSS Unarousable, number of patients",[30],9 patients
same,"UMSS Awake and alert, number of patients",[31],0 patients
same,"UMSS Deeply sedated/Deep sleep, number of patients",[31],2 patients
same,"UMSS Minimally sedated/Sleepy, number of patients",[31],1 patients
same,"UMSS Moderately sedated/Somnolent, number of patients",[31],4 patients
same,"UMSS Unarousable, number of patients",[31],4 patients
same,"UMSS Awake and alert, number of patients",[32],0 patients
same,"UMSS Deeply sedated/Deep sleep, number of patients",[32],7 patients
same,"UMSS Minimally sedated/Sleepy, number of patients",[32],2 patients
same,"UMSS Moderately sedated/Somnolent, number of patients",[32],3 patients
same,"UMSS Unarousable, number of patients",[32],0 patients
same,"UMSS Awake and alert, number of patients",[33],0 patients
same,"UMSS Deeply sedated/Deep sleep, number of patients",[33],3 patients
same,"UMSS Minimally sedated/Sleepy, number of patients",[33],2 patients
same,"UMSS Moderately sedated/Somnolent, number of patients",[33],2 patients
same,"UMSS Unarousable, number of patients",[33],5 patients
same,"UMSS Awake and alert, number of patients",[34],1 patients
same,"UMSS Deeply sedated/Deep sleep, number of patients",[34],2 patients
same,"UMSS Minimally sedated/Sleepy, number of patients",[34],0 patients
same,"UMSS Moderately sedated/Somnolent, number of patients",[34],6 patients
same,"UMSS Unarousable, number of patients",[34],1 patients
same,"UMSS Awake and alert, number of patients",[35],0 patients
same,"UMSS Deeply sedated/Deep sleep, number of patients",[35],1 patients
same,"UMSS Minimally sedated/Sleepy, number of patients",[35],2 patients
same,"UMSS Moderately sedated/Somnolent, number of patients",[35],7 patients
same,"UMSS Unarousable, number of patients",[35],1 patients
same,"UMSS Awake and alert, number of patients",[36],1 patients
same,"UMSS Deeply sedated/Deep sleep, number of patients",[36],2 patients
same,"UMSS Minimally sedated/Sleepy, number of patients",[36],3 patients
same,"UMSS Moderately sedated/Somnolent, number of patients",[36],5 patients
same,"UMSS Unarousable, number of patients",[36],1 patients
same,"UMSS Awake and alert, number of patients",[37],3 patients
same,"UMSS Deeply sedated/Deep sleep, number of patients",[37],3 patients
same,"UMSS Minimally sedated/Sleepy, number of patients",[37],2 patients
same,"UMSS Moderately sedated/Somnolent, number of patients",[37],1 patients
same,"UMSS Unarousable, number of patients",[37],0 patients
same,"UMSS Awake and alert, number of patients","Post Infusion Hour 10, Low dose (0.35 μg/kg bolus, 0.25 μg/kg/hour infusion)",3 patients

# Read-outs that look alike come from different tables or passages of the source.
